Patent US10669252B2, “Benzazepine derivative, preparation method, pharmaceutical composition and use thereof” (SHANGHAI DE NOVO PHARMATECH CO., LTD., priority 2016, dated 2020)

Amino acid sequences for entries named in this document (tags omitted). Residues count along the entry.
UniProt Q9NR97, 27-1041 limits assumed: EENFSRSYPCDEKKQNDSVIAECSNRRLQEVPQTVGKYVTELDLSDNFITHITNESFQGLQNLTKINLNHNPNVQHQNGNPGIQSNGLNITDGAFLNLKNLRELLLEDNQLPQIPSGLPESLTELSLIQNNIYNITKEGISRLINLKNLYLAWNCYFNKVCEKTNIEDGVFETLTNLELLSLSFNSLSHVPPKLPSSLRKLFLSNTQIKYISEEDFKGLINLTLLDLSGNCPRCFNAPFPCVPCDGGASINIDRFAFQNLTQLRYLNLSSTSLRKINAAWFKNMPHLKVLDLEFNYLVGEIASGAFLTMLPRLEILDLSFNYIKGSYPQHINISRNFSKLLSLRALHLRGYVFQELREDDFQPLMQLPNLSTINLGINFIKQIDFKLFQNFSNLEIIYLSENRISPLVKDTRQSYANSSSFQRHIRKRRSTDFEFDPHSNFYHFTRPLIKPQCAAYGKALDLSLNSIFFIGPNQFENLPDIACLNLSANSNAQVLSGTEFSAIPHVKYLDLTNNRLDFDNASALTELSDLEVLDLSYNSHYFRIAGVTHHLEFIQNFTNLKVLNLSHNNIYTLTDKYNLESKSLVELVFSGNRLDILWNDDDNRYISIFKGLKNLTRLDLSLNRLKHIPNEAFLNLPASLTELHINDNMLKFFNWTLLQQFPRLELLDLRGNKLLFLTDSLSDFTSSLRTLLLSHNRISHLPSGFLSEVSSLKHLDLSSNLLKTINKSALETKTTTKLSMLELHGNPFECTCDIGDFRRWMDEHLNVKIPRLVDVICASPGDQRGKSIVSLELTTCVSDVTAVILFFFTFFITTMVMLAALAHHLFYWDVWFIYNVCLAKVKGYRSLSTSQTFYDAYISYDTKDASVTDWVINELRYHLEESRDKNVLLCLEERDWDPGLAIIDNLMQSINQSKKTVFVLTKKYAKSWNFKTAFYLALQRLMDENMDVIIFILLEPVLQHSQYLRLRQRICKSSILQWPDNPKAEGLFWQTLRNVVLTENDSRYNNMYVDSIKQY
UniProt Q9NYK1, 27-1049 limits assumed: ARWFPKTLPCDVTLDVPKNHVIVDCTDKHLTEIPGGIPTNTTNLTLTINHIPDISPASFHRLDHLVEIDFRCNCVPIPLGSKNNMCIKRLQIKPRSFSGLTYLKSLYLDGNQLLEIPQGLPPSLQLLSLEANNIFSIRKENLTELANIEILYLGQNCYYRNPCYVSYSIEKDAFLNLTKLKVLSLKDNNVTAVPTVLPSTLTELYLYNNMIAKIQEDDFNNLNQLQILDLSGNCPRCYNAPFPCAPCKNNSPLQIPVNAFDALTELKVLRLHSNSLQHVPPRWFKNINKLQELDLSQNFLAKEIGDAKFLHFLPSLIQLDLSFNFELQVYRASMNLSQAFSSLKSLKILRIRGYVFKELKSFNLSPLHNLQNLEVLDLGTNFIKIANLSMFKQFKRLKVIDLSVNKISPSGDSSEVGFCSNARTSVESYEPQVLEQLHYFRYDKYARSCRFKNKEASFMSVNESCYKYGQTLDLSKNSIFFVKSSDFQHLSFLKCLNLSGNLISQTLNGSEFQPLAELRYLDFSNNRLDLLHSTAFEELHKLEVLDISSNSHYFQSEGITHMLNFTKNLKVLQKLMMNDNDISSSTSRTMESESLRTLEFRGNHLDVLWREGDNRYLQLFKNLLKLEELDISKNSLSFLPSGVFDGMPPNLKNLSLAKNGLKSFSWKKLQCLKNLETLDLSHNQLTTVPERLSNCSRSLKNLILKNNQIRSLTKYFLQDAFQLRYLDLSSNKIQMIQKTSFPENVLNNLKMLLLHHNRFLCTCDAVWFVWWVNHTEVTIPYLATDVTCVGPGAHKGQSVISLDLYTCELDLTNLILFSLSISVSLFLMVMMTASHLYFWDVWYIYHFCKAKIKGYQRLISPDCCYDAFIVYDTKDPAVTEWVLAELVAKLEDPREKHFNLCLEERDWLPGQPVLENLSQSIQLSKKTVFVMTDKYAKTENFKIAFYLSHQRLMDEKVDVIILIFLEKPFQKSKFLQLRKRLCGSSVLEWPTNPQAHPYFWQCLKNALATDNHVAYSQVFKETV

The compounds below were run against TLR8 (Homo sapiens, UniProt Q9NR97) (assay: TLR8 cell based assay (HEK-BLUE-hTLR8, SEAP reporter linked to NF-κB activation)). Details: read-out: TLR8 EC50; HEK-BLUE-hTLR8 cells, 24 h treatment, SEAP/QUANTI-Blue readout.
Experimental: (§1) In this assay, the bioactivity of compound of formula Iw as measured using a cell based assay. The assay was performed in human embryonic kidney cells (HEK293) expressing TLR8 or other TLR family members such as TLR4, TLR7 and TLR9 (for selectivity screens). The activity of specific TLR agonists was assessed using the secretory embryonic alkaline phosphatase (SEAP) reporter gene that is linked to NF-κB activation in response to TLR stimulation. The SEAP activity was measured using the Quanti-Blue substrate (InvivoGen) after TLR agonist treatment.
(§2) The detailed experimental method is as follow:
HEK-BLUE-hTLR8 cell line was purchased from InvivoGen. The cells were cultured in Dulbecco's Modified Eagle's Media containing 4.5 g/L […] (Sigma-Aldrich) and 10% FBS. The cells were cultured at 37° C., 95% humidity and 5% CO2.
Test concentrations of the compounds ranged from 0.5 nM to 15 μM with 10 points. A known TLR8 agonist was added as positive control and 1 μl of DMSO was added as negative control.
The cells were prepared as follows: The cells were removed from the incubator and growth medium was discarded. The cells were gently rinsed with pre-warmed 10 ml PBS for a T-150 flask. 12 ml pre-warmed growth medium was added, and the cells were detached by tapping the flask. Cell clumps were dissociated by gently pipetting up and down. The cells were counted. Single cell suspension was prepared at 200,000 cells per ml in growth medium and 200 μl of the cell suspension (40,000 cells per well) were immediately added to each well of the plate. The final DMSO concentration of each well was 0.5%.
The cells were cultured and treated with the compounds at 37° C., 5% CO2 for 24 h.
(§3) 20 μL of the supernatant of each well were added to 180 μL of QUANTI-Blue, and the plates were incubated at 37° C. for 1.5 hour. Optical density was measured using a spectrophotometer at 650 nm (OD data). Activivation was calculated by using the equation below: Activivation %=(Compound OD mean value−DMSO OD mean value)/(positive control OD mean value−DMSO OD mean value)×100
(§4) The data were analyzed using the GraphPad to get EC50 values and fitting dose response curves of the compounds.

SMILES	EC50
CCCN(CCC)C(=O)C1=Cc2ccc(-c3ccc4c(=S)n(Cc5nccn5C)ccc4c3)cc2N=C(N)C1	< 100 nM
CCCN(CCC)C(=O)C1=Cc2ccc(-c3ccc4c(=O)n(CC)c5c(c4c3)CCC5)cc2N=C(N)C1	1000 to 10000 nM
CCCN(CCC)C(=O)C1=Cc2ccc(-c3ccc4c(=S)n(Cc5nc(OC)cc(OC)n5)ccc4c3)cc2N=C(N)C1	100 to 1000 nM
CCCN(CCC)C(=O)C1=Cc2ccc(-c3ccc4c(=S)n(Cc5ncccn5)ccc4c3)cc2N=C(N)C1	< 100 nM
CCCN(CCC)C(=O)C1=Cc2ccc(-c3ccc4c(=S)n(Cc5nc(OC)cc(OC)n5)ncc4c3)cc2N=C(N)C1	100 to 1000 nM
CCCN(CCC)C(=O)C1=Cc2ccc(-c3ccc(C(=O)N4CCCC4)cc3)cc2N=C(N)C1	100 to 1000 nM
CCCN(CCC)C(=O)C1=Cc2ccc(-c3ccc4c(=O)n(CC(C)(C)C)ccc4c3)cc2N=C(N)C1	1000 to 10000 nM

The compounds below were run against TLR7 (Homo sapiens, UniProt Q9NYK1) (assay: TLR7 cell based assay (HEK-BLUE-hTLR7, SEAP reporter linked to NF-κB activation)). Details: read-out: TLR7 EC50; HEK-BLUE-hTLR7 cells, 24 hours treatment, SEAP/QUANTI-Blue readout.
Experimental: as §1, with “(I) was” for “Iw as”, “TLR7” for “TLR8”, “TLR4,” for “TLR4, TLR7”
as §2
HEK-BLUE-hTLR7 cell line was purchased from InvivoGen. The cells were cultured in Dulbecco's Modified Eagle's Media containing 4.5 g/L […] (Sigma-Aldrich) and 10% FBS. The cells were cultured at 37° C., 95% humidity and 5% CO2. […]
The cells were prepared as follows. […] The cells were counted. […]
as §3, §4

SMILES	EC50
CCCN(CCC)C(=O)C1=Cc2ccc(-c3ccc4c(=S)n(Cc5nccn5C)ccc4c3)cc2N=C(N)C1	> 50000 nM
